A selection: hits, their analogues and other compounds. The true share with any hit is near 1.1%.
miR-21 FLuc – miR-21 reporter, rising signal | HeLa miR-21 FLuc reporter, luciferase, 48 h | Potency, µM (top dose mostly 38.3 µM), inactives show at the top dose reporter change, positive = more light | 340,000 tested, under 10 active | AID 2288; active = well fitted rising curve with a large enough effect; inconclusive = small, poorly fitted or top-dose-only effect; inactive = no such curve, though single readings can be large or run the other way;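 further: % of control where 0% means no effect; miR-21 action dims this reporter so a rising signal means less miR-21 action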
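Luminescence from a firefly luciferase reporter carrying a miR-21 binding site downstream, stably expressed under a CMV promoter in HeLa cells that make miR-21 endogenously, reports miRNA modulation after 48 h compound exposure up to approximately 40uM final.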
Anesthetic bind – binds horse apoferritin like a general anesthetic | Potency, µM (top dose mostly 77.5 µM), inactives show top-dose activity change, negative = displacement, hits mostly inhibitors | P02791 | apoferritin/1-aminoanthracene competitive binding, fluorescence | actives 0.074% (n = 350,000); also: potency is read from the fitted curve at half-maximal effect; % is scaled to controls: 0 for no effect and ±100 for the full control effect; nearly all actives have a fitted effect of over 20% in size
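Apoferritin-based anesthetic binding model; compound displacement of fluorescent 1-AMA measured as endpoint fluorescence after 10 minutes at room temperature, scaled to free-ligand and complex controls.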
BRCA1 expr act – increases BRCA1 expression; MCF7-BRCA1-FFLuc reporter, luminescence, 48 h; response scale: scaled: vehicle 0%, 10 µM genistein 100%; Potency, µM (series often up to 46.1 µM), for the others: at the top dose activation, usual class: activators; actives 1.1% (n = 380,000); also: potency is read from the fitted curve at half-maximal effect; nearly all actives have a fitted effect of over 80% in size
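Luminescence from a BRCA1-driven firefly luciferase in MCF7 cells was the read-out, taken 15 min after substrate addition following 48 h compound exposure at 37 °C. Data were normalized to a 10 microM genistein control and DMSO vehicle.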
p53 reactivator – restores transcriptional activity of mutant p53. Potency, µM (doses to about 92.2 µM), inactives show at the highest dose activity change, positive = activation, hits mostly activators. actives 0.063% (n = 320,000). H1299 p53-A138V BP100-luciferase reporter, luminescence, 24 h; also: potency is read from the fitted curve at half-maximal effect; % of control where 0% means no effect; nearly all actives have a fitted effect of over 45% in size
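p53-null H1299 cells stably carrying temperature-sensitive p53-A138V and a BP100-luciferase reporter were pinned with compounds (4-point, 1:5 series) and held 24 hrs at 37 deg C. Luminescence was read 10 min after detection reagent.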
Numbers without * were called inactive; ? = inconclusive; · = no result. Calls follow the shape of the dose curve; as a rule, active = well fitted curve in the direction sought with a large enough effect; inconclusive = small, poorly fitted or top-dose-only effect, or another doubt; inactive = no such curve, though single readings can be large; an effect the other way counts as inactive or inconclusive.

SMILES | miR-21 FLuc | Anesthetic bind | BRCA1 expr act | p53 reactivator
COc1cc(O)c2c(=O)c(-c3ccc(O[C@@H]4O[C@H](CO)[C@@H](O)[C@H](O)[C@H]4O)cc3)coc2c1 | -44% | 1% | 2µM* | 25%
O=c1c(-c2ccc(O)cc2)coc2cc(OC3OC(CO)C(O)C(O)C3O)cc(O)c12 (stereo unspecified) | -65% | 47% | 8.9µM* | ?
CN(C)CCN(C(=O)C1CCCCC1)c1nc2cc3c(cc2s1)OCCO3 | · | · | 11µM* | ·
CN(C)CCN(C(=O)c1cccs1)c1nc2cc3c(cc2s1)OCCO3 | -35% | -6% | 11µM* | 23%
CN(C)CCN(C(=O)c1ccc(Br)s1)c1nc2cc3c(cc2s1)OCCO3 | -34% | -21% | 81% | 19%
CCC1CCCCN1S(=O)(=O)c1ccc(C(=O)N(CCCN(C)C)c2nc3cc4c(cc3s2)OCO4)cc1 (stereo unspecified) | -4% | 56µM* | -2% | ?
CN(C)CCCN(C(=O)c1ccc(S(=O)(=O)N2CCCCCC2)cc1)c1nc2cc3c(cc2s1)OCO3 | · | · | 2% | ·
Cc1nc(-c2ccc(Cl)cc2)sc1CCNC(=O)C(=O)Nc1ccc(F)cc1F | -15% | -6% | · | ·
CCOC(=O)c1ccccc1NC(=O)CSc1ccc(-c2cccs2)nn1 | 1% | -2% | · | ·
CCOC(=O)C(C(C)=O)c1c(Br)c(O)c(O)c2c(C(=O)c3ccc(C)cc3)coc12 (stereo unspecified) | ? | ? | -99% | 25µM*
O=C(Nc1nc(-c2ccccc2)cs1)c1ccco1 | -38% | -8% | 7.1µM* | 9%
O=C(Nc1nc(-c2ccc(Cl)s2)cs1)c1ccccc1 | -14% | -11% | 47% | -13%
Cc1csc(NC(=O)c2ccccc2)n1 | -31% | -4% | 3.2µM* | 6%
O=C(Nc1nc(-c2ccco2)cs1)c1ccccc1 | -16% | -13% | 8.9µM* | ?
CN1N/C(=C\c2ccccc2)N=C2C(=O)N(C)C(=O)N=C21 | · | · | -53% | ·
CCN(CC)CCn1c(NCc2ccc(C)o2)nc2ccccc21 | -2% | -14% | -1% | 2%
Cc1ccc(CNc2nc3ccccc3n2C)o1 | -52% | -7% | 4µM* | ?
Cn1cnc2cc(NCc3ccccc3Cl)ccc21 | -59% | -13% | 7.9µM* | 21%
Cn1c(NCc2ccccc2Cl)nc2ccccc21 | · | · | 3.5µM* | ·
Cn1c(NCc2ccccc2O)nc2ccccc21 | -48% | -22% | ? | ?
Cc1ccc(O)c(NC(=S)NC(=O)CC(C)C)c1 | -66% | -15% | 13µM* | ?
O=c1cc(-c2ccco2)oc2ccccc12 | · | · | 77% | ·
N#CCOc1ccc2oc(-c3ccco3)cc(=O)c2c1 | 1% | -4% | · | -4%
Cc1ccc2oc(-c3ccco3)cc(=O)c2c1 | -61% | -12% | 3.5µM* | 4%
CC(C)OCCOc1ccc2oc(-c3ccco3)cc(=O)c2c1 | -36% | 7% | 8.9µM* | ·

With a hit mark in p53 reactivator, among the entries above:
| molecule | miR-21 FLuc | Anesthetic bind | p53 reactivator |
| --- | --- | --- | --- |
| CCOC(=O)C(C(C)=O)c1c(Br)c(O)c(O)c2c(C(=O)c3ccc(C)cc3)coc12 (stereo unspecified) | ? | ? | 25µM* |

Other structures follow:
SMILES | miR-21 FLuc | Anesthetic bind | BRCA1 expr act | p53 reactivator
CC(=O)N(c1ccc(Cl)cc1)C1SC(=O)N(c2ccc(C)cc2)C1=O (stereo unspecified) | · | · | 24% | ·
O=C(c1cc(COc2ccc(F)cc2F)on1)N1CCSCC1 | -63% | -16% | 7.9µM* | 6%
Cc1cc(C)cc(OCC(=O)Nc2cnn(CCCC(=O)O)c2)c1 | -1% | -1% | -3% | -5%
O=C(NCc1ccccc1)c1ccc(-c2ccccc2F)o1 | -38% | 5% | 11µM* | ?
O=C(NCCc1ccccc1)c1ccc(-c2ccccc2C(F)(F)F)o1 | -23% | 2% | 11% | 2%
COc1cccc(NC(=O)c2ccc(NC(=O)C(C)(C)C)cc2)c1 | -30% | -5% | 4µM* | ?
COc1ccc(-c2csc(NC(=O)c3ccccc3F)c2C(=O)O)cc1 | 15% | 1% | 6.3µM* | 11%
O=C(Nc1ccccc1)Nc1ccc(Nc2ccccc2)cc1 | · | · | 4µM* | ·
COc1cccc(NC(=O)c2c(F)cccc2F)c1 | · | · | ? | 8%
COc1cccc(NC(=O)c2ccccc2F)c1 | · | · | 7.9µM* | 25%
CCOC(=O)c1c(-c2ccc(Br)cc2)csc1NC(=O)c1ccccc1F | -4% | -3% | · | ·
CCn1cc(C(=O)NCCc2ccc(OC)c(OC)c2)c(=O)c2cc(S(=O)(=O)N3CCC(C)CC3)ccc21 | -6% | ? | -30% | ·
COCC(=O)Nc1c(C(=O)Nc2cccc(OC)c2)oc2ccccc12 | -27% | 4% | ? | ?
COc1ccc(NC(=S)NC(=O)c2ccc(Br)o2)cc1 | -64% | -16% | 6.3µM* | 29%

Ordered by value in p53 reactivator (largest number first): some entries from above.
| SMILES | p53 reactivator |
| --- | --- |
| COc1ccc(NC(=S)NC(=O)c2ccc(Br)o2)cc1 | 29% |
| COc1ccc(-c2csc(NC(=O)c3ccccc3F)c2C(=O)O)cc1 | 11% |
| O=C(Nc1nc(-c2ccccc2)cs1)c1ccco1 | 9% |

Laid out differently: results already given.
O=C(NCCc1ccccc1)c1ccc(-c2ccccc2C(F)(F)F)o1
  miR-21 FLuc: -23%	Anesthetic bind: 2%	BRCA1 expr act: 11%	p53 reactivator: 2%
COc1cccc(NC(=O)c2ccc(NC(=O)C(C)(C)C)cc2)c1
  miR-21 FLuc: -30%	Anesthetic bind: -5%	BRCA1 expr act: 4µM*	p53 reactivator: ?
